We go through one molecule from patent US20250115658A1 (FBD BIOLOGICS, published 2025).

The target of experiment [1] is T1, Human PD-L1-ECD-His (human).
T1 construct: Bought (Sino cat. no. I-10084-H08H); not shown: His tag
The experiment can be described thus: Octet Red96 BLI, pH7.4; fold of affinity against PD1-Fc-wt1. (In general: BLI is a label-free optical method that tracks binding on a fibre tip over time.)

For experiment [2], the target named is T1, Human PD-L1-ECD-His. The experiment can be described thus: Octet Red96 BLI, pH6.0; fold of affinity against PD1-Fc-wt1.
Experiment [3] has as its target T2, PD-L1 on PD-L1 transfected CHO-S cells (human).
T2 construct: also called PD-L1 tf CHO-S cells
In words: flow cytometry on PDL1 transfected CHO-S cells, goat anti-human Fc PE detection, pH6.0.

The target of experiment [4] is T1, Human PD-L1-ECD-His. In words: Octet Red96 BLI, PDL1-ECD-His loaded on anti-Penta-HIS (HIS1K) biosensor, PD1-Fc protein as analyte, 1:1 model, pH6.0; pH 6.
Experiment [5] deals with T1, Human PD-L1-ECD-His. In words: Octet Red96 BLI, PDL1-ECD-His loaded on anti-Penta-HIS (HIS1K) biosensor, PD1-Fc protein as analyte, 1:1 model, pH7.4; pH 7.4.
In experiment [6] the target is T1, Human PD-L1-ECD-His. The experiment can be described thus: Octet Red96 BLI, PDL1-ECD-His loaded on anti-Penta-HIS (HIS1K) biosensor, PD1-Fc protein as analyte, 1:1 model, pH6.0; column head kdis(1/s); pH 6.
The target of experiment [7] is T1, Human PD-L1-ECD-His. The experiment can be described thus: Octet Red96 BLI, PDL1-ECD-His loaded on anti-Penta-HIS (HIS1K) biosensor, PD1-Fc protein as analyte, 1:1 model, pH7.4; column head kdis(1/s); pH 7.4.

B1: PD1-Fc-WT1 (Fc fusion)
chain: DSPDRPWNPPTFSPALLVVTEGDNATFTCSFSNTSESFVLNWYRMSPSNQTDKLAAFPEDRSQPGQDCRFRVTQLPNGRDFHMSVVRARRNDSGTYLCGAISLAPKAQIKESLRAELRVTERRAEVPTAHPSPSPRPAGQFQTLV
notes: also called biotin-PD1-Fc-WT1; hPD-1-Fc (wild type); not shown: human IgG4 hinge and Fc
As usually defined, the EC50 (read off the curve) is the concentration giving half of the maximal effect. Low readings indicate greater potency, high ones weaker potency. Broadly, the Kd is the free concentration of one partner at which half of the binding sites on the other are occupied at equilibrium, for simple one-to-one binding. A low value points to a tighter complex. The kon is a measure of how fast the partners come together. The term koff denotes the first-order rate constant of dissociation. A low value points to a long-lived complex. B1: the Fold in the experiment with Human PD-L1-ECD-His [1] and with Human PD-L1-ECD-His [2] was 1 each time. The “EC50 (read off the curve)” value in experiment [3] was about 5 µg/mL. Further, the results for the Kd with Human PD-L1-ECD-His [4] and with Human PD-L1-ECD-His [5] were 17.9 nM and 10 nM, respectively. The kon was 646000 M⁻¹ s⁻¹ in the experiment with Human PD-L1-ECD-His [4] and 1.01e+06 M⁻¹ s⁻¹ with Human PD-L1-ECD-His [5]. For the same molecule, the koff was found to be 0.0116 s⁻¹ with Human PD-L1-ECD-His [6] and 0.0101 s⁻¹ in the experiment with Human PD-L1-ECD-His [7].
